Measurements taken from ChEMBL document CHEMBL5576133, “Development of VU6036864: A Triazolopyridine-Based High-Quality Antagonist Tool Compound of the M5 Muscarinic Acetylcholine Receptor” (J Med Chem, 2024).

By UniProt entry, the sequences of proteins in these tests, tags left out. Where a name states a change or a piece, a line headed by the entry shows the natural chain unless it says otherwise.
UniProt Q12809: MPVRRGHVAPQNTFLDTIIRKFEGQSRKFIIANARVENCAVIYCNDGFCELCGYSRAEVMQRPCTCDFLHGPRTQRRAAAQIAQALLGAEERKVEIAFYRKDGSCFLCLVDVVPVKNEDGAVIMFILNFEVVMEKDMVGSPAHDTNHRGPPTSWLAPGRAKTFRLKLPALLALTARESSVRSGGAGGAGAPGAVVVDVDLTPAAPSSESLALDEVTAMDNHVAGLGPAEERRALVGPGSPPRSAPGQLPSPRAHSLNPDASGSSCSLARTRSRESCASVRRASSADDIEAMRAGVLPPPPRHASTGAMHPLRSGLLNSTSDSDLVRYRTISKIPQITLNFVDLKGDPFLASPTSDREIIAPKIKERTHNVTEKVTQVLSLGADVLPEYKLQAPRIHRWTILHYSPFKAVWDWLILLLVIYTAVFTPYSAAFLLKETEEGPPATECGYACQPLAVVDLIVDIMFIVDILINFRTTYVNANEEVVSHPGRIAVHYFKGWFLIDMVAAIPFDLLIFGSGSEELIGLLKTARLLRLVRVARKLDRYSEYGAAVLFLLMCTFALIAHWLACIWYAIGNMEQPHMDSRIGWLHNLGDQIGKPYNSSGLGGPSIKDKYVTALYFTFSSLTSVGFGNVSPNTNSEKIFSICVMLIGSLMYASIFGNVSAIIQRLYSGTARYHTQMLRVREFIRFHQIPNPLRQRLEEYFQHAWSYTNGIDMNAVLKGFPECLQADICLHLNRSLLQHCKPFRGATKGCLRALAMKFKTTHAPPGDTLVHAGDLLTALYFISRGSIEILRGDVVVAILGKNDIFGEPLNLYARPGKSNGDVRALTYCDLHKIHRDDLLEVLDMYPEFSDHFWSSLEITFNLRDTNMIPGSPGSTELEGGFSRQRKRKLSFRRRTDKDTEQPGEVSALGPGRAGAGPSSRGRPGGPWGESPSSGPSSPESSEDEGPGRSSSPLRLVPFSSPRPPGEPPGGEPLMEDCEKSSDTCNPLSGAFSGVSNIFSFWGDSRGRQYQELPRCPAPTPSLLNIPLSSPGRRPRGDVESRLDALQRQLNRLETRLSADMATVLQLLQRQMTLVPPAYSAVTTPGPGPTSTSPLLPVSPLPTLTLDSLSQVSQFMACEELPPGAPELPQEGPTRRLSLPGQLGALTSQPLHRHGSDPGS

Columns and labels:
[1] = biological target: hERG (KCNH2) (Homo sapiens, UniProt Q12809); test: in vitro
[2] = in vitro; details: cynomolgus monkey, liver microsomes
[3] = in vitro; details: rat, liver microsomes
[4] = in vitro; details: dog, MDCK-MDR1

CLhep predicted [2] [L/h/kg]	CLhep predicted at 0.75 h, 1 µM [3] [L/h/kg]	Papp at 2 h, 5 µM [4] [nm/s]	SMILES	inhibition at 0.05 h, 10 µM [1] [%]
1.74	2.52		Cc1ncc(S(=O)(=O)N2CCC(c3cn4ncnc4cc3Cl)CC2)s1	62.8
		200	Cc1ncc(S(=O)(=O)N2CCC(c3cn4ncnc4cc3C)CC2)s1	
